Here are results for one compound from paper PMC5867211 (Archives of toxicology, 2017).

As usually defined, the IC50 is the midpoint of a concentration-inhibition curve. Lower therefore signals inhibition by little substance.

This data set in a line: in vitro. The note with it: human.

Compound `CC(CCc1ccccc1)NCC(O)c1ccc(O)c(C(N)=O)c1` (stereo not shown) [Labetalol] yielded a half-maximal inhibitory concentration (IC50) of 200 ± 10 µM.
